Laboratory results: ChEMBL document CHEMBL6071188, “Synthesis and In Vivo Profiling of Desymmetrized Antimalarial Trioxolanes with Diverse Carbamate Side Chains” (ACS Med Chem Lett, 2024)

Assay: in vivo
Settings: rat, po, 17.4 mg/kg

CC(C)(N)CNC(=O)C[C@H]1CC[C@]2(CC1)OO[C@]1(O2)C2CC3CC(C2)CC1C3
half-life: 1.4 h
